For four substances, EC50 results are on record in patent US6476187B1, “Methods and reagents for discovering and using mammalian melanocortin receptor agonists and antagonists to modulate feeding behavior in animals” (Oregon Health & Sciences University, priority 1992, dated 2002).

Amino acid sequences for entries named in this document (tags omitted). A change or cut given only in a name is not applied to a line headed by its entry.
UniProt P32244: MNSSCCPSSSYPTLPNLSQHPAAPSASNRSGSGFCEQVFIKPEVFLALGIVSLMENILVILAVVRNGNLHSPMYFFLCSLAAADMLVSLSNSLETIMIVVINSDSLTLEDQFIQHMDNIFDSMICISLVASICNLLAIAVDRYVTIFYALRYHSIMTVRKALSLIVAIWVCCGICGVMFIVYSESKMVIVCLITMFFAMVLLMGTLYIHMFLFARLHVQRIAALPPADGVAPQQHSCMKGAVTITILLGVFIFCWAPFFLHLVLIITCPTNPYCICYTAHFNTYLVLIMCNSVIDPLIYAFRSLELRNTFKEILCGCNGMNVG
UniProt P32245, whole entry: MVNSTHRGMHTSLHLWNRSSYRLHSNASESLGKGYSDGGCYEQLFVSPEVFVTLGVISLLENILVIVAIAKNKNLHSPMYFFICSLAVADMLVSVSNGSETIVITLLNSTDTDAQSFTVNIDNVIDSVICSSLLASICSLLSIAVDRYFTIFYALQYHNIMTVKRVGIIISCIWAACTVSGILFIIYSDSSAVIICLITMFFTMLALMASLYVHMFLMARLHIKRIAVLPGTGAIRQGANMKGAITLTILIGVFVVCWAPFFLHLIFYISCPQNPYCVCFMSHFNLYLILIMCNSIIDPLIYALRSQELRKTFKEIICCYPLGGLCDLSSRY
UniProt P41149: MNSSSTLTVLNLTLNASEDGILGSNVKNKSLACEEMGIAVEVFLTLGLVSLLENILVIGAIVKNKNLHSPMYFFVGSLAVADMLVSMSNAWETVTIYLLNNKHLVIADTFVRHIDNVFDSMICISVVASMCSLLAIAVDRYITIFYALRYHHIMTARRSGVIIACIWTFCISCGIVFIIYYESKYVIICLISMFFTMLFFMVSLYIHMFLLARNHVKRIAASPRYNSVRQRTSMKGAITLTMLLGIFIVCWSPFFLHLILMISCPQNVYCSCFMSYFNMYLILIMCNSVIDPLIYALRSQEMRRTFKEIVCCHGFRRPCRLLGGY

Common to all, as to format: cell-based
The target in assay [1] is T1, rat MC3-R (Rattus norvegicus, UniProt P32244).
T1 construct: The entire coding region of the MC-3 receptor cDNA insert; expressed in transfected cells; host or cells: human 293 cells, pcDNA/neo I, G418-selected
Nature of the assay: intracellular cAMP production in 293 cells expressing MC3-R. To be noted: 1 h at 37° C. The protocol:
cAMP production assays as described above were also used to analyze expression of MC3-R in cells transfected with the expression vectors described herein as follows. Cells (˜5×10^6) were plated in 6-well dishes, washed once with DMEM containing 1% bovine serum albumin (BSA) and 0.5 mM IBMX (a phosphodiesterase inhibitor), then incubated for 1 h at 37° C. with varying concentrations of the melanotropic peptides αMSH, γ3MSH, γMSH, the MSH peptide analogues Nle^4-D-Phe^7-αMSH (NDP-MSH), ACTH4-10 and ACTH1-39. Following hormone treatment, the cells were washed twice with phosphate buffered saline and intracellular cAMP extracted by lysing the cells with 1 mL of 60% ethanol. Intracellular cAMP concentrations were determined using an assay which measures the ability of cAMP to displace [8-^3H] cAMP from a high affinity cAMP binding protein (see Gilman, 1979, Proc. Natl. Acad. Sci. USA 67: 305-312).
The abscissa indicates the concentration of each hormone and the ordinate indicates the percentage of basal intracellular cAMP concentration achieved by each treatment. […] None of the peptides tested induced any change in intracellular cAMP in cells containing the vector alone. Cells expressing rat MC3-R responded strongly to every melanotropic peptide containing the MSH code sequence His-Phe-Arg-Trp, with up to a 60-fold elevation of intracellular cAMP levels.

Assay [2] addresses T2, human melanocortin-4 receptor (Homo sapiens, UniProt P32245).
T2 construct: The MC-4 receptor was cloned in a 1.9 kb HindIII genomic DNA fragment; expressed in transfected cells; host or cells: human 293 cells, pcDNAI/Neo, G418-selected
Nature of the assay: adenylate cyclase activity in 293 cells expressing MC-4 receptor.

The target of assay [3] is T3, mouse MC-5 melanocortin receptor (Mus musculus, UniProt P41149).
T3 construct: expressed in transfected cells; host or cells: human 293 cells, pcDNA/neo, G418-selected
Nature of the assay: adenylate cyclase / cAMP-dependent β-galactosidase assay in 293 cells expressing MC-5 receptor. To be noted: MC-5 receptor agonists. As for the experimental part:
A 1.6 kb ApaI-HindIII fragment comprising the entire coding sequence of the mouse MC-5 melanocortin receptor disclosed in Example 2G above was cloned into the pcDNA/neo expression vector (Invitrogen) after PCR amplification of the lambda phage clone. This plasmid was stably introduced into human 293 cells by calcium phosphate co-precipitation using standard techniques, and plasmid-containing cells selected in G418 containing media. Specificity of receptor-hormone binding was assayed using adenylate cylcase activity as described above.
α-MSH>PMSH>>γ-MSH The results of adenylate cyclase activity assays (AC) and cAMP-dependent β-galactosidase (β-gal) assay are shown in FIG. 13.

Turning to ACTH4-10, the EC50 in assay [1] is 100 nM; in assay [2] it was above 100 nM. Regarding desacetyl-αMSH, in assay [1], the EC50 is 8 nM. This counts as single-digit nanomolar. In assay [3], “α-melanocyte stimulating hormone [α-MSH]” gave an EC50 of 1.7 nM. This counts as single-digit nanomolar. As for γ2-MSH, the EC50 in assay [1] is 3 nM.
